# Assay results reported in ChEMBL document CHEMBL1125523, “Novel indolodioxanes with antihypertensive effects: potent ligands for the 5-HT1A receptor” (J Med Chem, 1992).
# Protein sequences, listed by entry. Tags and fused reporters are not part of them. Lines headed by an entry give the natural chain unless they say otherwise; changes in a name come on top.
# UniProt P33533, whole entry, looked up: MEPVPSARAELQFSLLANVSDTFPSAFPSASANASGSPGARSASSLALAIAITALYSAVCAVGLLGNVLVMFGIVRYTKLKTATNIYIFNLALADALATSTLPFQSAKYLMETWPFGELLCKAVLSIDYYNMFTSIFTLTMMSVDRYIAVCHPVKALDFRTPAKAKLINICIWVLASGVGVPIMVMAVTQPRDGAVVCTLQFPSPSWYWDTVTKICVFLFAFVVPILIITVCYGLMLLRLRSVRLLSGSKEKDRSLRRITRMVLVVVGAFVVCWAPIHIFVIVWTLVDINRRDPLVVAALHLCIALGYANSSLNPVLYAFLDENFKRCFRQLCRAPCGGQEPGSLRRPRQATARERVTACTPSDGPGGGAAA
# UniProt P34975: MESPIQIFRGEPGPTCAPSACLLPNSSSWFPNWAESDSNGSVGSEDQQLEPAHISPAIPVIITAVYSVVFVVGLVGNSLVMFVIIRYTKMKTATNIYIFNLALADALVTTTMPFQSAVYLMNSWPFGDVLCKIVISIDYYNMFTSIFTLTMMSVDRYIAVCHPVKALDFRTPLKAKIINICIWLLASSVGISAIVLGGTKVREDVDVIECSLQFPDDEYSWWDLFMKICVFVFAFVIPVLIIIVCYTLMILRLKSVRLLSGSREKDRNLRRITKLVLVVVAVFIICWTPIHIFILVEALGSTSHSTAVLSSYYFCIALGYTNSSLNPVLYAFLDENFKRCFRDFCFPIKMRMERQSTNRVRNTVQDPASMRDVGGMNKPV
# UniProt P33535, whole entry, looked up: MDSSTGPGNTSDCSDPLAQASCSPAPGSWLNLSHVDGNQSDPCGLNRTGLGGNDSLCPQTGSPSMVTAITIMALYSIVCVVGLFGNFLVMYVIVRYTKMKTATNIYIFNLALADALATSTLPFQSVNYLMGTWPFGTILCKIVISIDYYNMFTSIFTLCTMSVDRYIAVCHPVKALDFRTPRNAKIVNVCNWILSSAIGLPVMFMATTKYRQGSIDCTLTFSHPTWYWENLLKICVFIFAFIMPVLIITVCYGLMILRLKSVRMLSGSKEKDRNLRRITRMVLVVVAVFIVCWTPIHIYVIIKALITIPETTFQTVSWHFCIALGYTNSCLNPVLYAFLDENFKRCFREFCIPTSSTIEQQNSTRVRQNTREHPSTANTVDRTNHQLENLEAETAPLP
# Target: Opioid receptor (Rattus norvegicus, UniProt P33533+P34975+P33535)
# Assay: Compound was evaluated for the binding affinity towards opioid receptor from rat whole brain using [3H]etorpine (33.2 Ci/mmol,0.2nanoM)as radioligand
row,SMILES,Ki [nM]
1,CCOC(=O)C1CCN(CC2COc3ccc4[nH]c(C(=O)OC)cc4c3O2)CC1 (stereo not drawn),2420
2,O=C(NCCCc1ccccc1)c1cc2c3c(ccc2[nH]1)OCC(CNCCCc1ccccc1)O3 (stereo not drawn),530
3,COC(=O)c1cc2c3c(ccc2[nH]1)OCC(CNCCCc1ccccc1)O3 (stereo not drawn),765
